Data from ChEMBL document CHEMBL1153532, “Design and evaluation of novel biphenyl sulfonamide derivatives with potent histamine H(3) receptor inverse agonist activity” (J Med Chem, 2009).

Amino acid sequences for entries named in this document (tags omitted). A change or cut given only in a name is not applied to a line headed by its entry.
UniProt Q9QYN8: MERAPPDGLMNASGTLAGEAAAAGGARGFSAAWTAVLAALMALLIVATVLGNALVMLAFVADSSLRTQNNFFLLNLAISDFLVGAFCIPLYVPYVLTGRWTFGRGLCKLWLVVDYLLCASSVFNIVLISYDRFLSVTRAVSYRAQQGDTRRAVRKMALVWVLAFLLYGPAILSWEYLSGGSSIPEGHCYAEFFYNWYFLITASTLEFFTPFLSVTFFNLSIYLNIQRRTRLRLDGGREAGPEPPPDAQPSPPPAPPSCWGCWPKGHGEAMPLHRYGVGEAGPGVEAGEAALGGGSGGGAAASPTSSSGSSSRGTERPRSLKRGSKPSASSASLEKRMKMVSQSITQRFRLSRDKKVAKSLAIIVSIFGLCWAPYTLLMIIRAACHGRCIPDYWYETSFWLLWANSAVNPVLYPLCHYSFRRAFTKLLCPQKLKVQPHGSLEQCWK

Target: Histamine H3 receptor (Rattus norvegicus, UniProt Q9QYN8)
Test: Displacement of N-[3H]methylhistamine from histamine H3 receptor in rat cortex membrane
Format: cell membranes

`C[C@@H]1CCCN1CCc1ccc(-c2ccc(S(=O)(=O)NCC3CC3)cc2)cc1` was tested, and the Ki (read-out: pKi (converted)) was 2.51 nM.
`CCNS(=O)(=O)c1ccc(-c2ccc(CCN3CCC[C@H]3C)cc2)cc1` gave a Ki (read-out: Ki) of 3 nM.
